According to US20030135023A1, “Peptide structures useful for competitive modulation of dipeptidyl peptidase IV catalysis” (priority 2001, published 2003):
Where “and” joins values, the source holds several entries; their conditions need not be identical. Identical values can stand only once.

Amino acid sequences for entries named in this document (tags omitted). Residues count along the entry.
UniProt P14740, 37-767 limits assumed: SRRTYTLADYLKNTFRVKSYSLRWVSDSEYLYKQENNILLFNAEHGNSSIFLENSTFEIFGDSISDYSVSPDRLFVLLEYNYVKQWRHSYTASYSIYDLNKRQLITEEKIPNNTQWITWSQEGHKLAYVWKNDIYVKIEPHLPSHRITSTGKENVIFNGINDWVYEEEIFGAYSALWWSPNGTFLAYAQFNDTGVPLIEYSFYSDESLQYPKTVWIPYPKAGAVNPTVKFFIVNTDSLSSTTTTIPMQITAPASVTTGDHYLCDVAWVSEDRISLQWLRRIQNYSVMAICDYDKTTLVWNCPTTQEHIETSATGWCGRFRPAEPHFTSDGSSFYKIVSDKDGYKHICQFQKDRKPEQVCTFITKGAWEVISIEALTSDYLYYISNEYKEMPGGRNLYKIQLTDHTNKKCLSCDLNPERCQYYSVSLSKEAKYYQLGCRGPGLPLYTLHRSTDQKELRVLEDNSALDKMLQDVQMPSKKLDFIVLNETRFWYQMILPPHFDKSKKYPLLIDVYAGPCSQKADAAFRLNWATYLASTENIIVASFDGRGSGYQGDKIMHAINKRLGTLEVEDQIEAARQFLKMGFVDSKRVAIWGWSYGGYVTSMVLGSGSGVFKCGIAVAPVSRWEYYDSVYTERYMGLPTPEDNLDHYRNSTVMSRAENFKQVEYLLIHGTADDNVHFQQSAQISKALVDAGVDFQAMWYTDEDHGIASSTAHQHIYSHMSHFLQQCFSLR

Molecular target: T1, plasma DP IV (Rattus norvegicus, UniProt P14740)
T1 construct: The assay mixture consisted of 80 μl reagent and 20 μl plasma; from tissue; host or cells: plasma of Wistar rats
Test: Plasma DP IV activity after intravasal and oral administration in Wistar rats
Assay type: in vivo
Protocol: Rats with intact catheter function were given the test substances intravasal (intraarterial) or oral, respectively, in random order (N=3 Wistar rats in each group). As positive control, […]. isoleucine thiazolidine*fumarate were administered intravasal.
After overnight fasting, 100 μl samples of heparinized arterial blood were collected at −30, −5, and 0 min into ice-cooled Eppendorf tubes (see below). The test substances were dissolved freshly in 1.0 ml saline (0.154 mol/l) and were given at 0 min either oral via a feeding tube ([…], 75 mm; Fine Science Tools, Heidelberg, Germany) or intravasal. For the intravasal route, the catheter was immediately flushed with 30 μl saline and an additional 1 ml of saline was given orally via the feeding tube.
Arterial blood samples were taken thereafter at 5, 10 (only in a limited number of experiments), 20, 40, 60 and 120 min from the carotid catheter of the conscious unrestrained rats and were always given into ice cooled Eppendorf tubes (Eppendorf-Netheler-Hinz, Hamburg, Germany) filled with 10 μl 1 M citrate buffer pH 3.0 for prevention of further hydrolysis of tripeptides by plasma DP IV activity. Eppendorf tubes were centrifuged immediately (12000 rpm for 2 min, Hettich Zentrifuge EBA 12, Tuttlingen; Germany): The plasma fractions were store on ice until analysis or were deeply frozen at −20 ° C. until analysis.
Plasma DP IV activity: The assay mixture consisted of 80 μl reagent and 20 μl plasma. Kinetic measurements of the formation of the yellow product 4-nitroaniline were performed at 390 nm for 1 min at 30° C. after 2 min pre-incubation at the same temperature. The activity was expressed as arbitrary units [AU] and DP IV activity [mU/ml].
The absolute values of plasma DP IV activity, the relative change of plasma DP IV activity and the time and extent of maximal inhibition were calculated. Data presentation included the presentation of area under the curve (AUC), which was used for evaluation of extent of inhibition of plasma DP IV activity during the two hours of observation. AUC was calculated using the trapezoidal rule.
To compare relative changes of parameters under the conditions of different initial values of DP IV activity an uniform standardised mean (values) was set up at the beginning of the test (see Figures and Tables).
Statistical evaluations were performed with Microsoft Excel® 97. All variables are presented as mean and standard deviation (SD). Treatment groups were compared by Student's t-test, within-group changes by paired t-test. Two-tailed values of p<0.05 were considered significant.

[1] = intravasal 30 mg/kg, individual animals
[2] = intravasal 100 mg/kg, individual animals

CC[C@H](C)[C@H](N)C(=O)N1CCC[C@H]1C(=O)N[C@H](C(=O)O)[C@@H](C)CC [Diprotin A, Ile-Pro-Ile]
DP IV AUC 0-20 (intravasal 30 mg/kg, Mean): −69.8 mU · min/ml
DP IV AUC 0-120 (intravasal 30 mg/kg, Mean): −128.3 mU · min/ml
Drop of plasma DP IV activity (intravasal 30 mg/kg, Mean): 7.7 mU/ml
Plasma DP IV activity Minimum (intravasal 30 mg/kg, Mean): 16.8 mU/ml
Time of Minimum (intravasal 30 mg/kg, Mean): 5.0
Plasma DP IV activity Minimum (intravasal 30 mg/kg, Standard. Mean): 17.3 mU/ml
DP IV AUC 0-20 [1]: −32.9 mU · min/ml and −123.9 mU · min/ml and −52.6 mU · min/ml
DP IV AUC 0-120 [1]: 50.4 mU · min/ml and −273.0 mU · min/ml and −162.3 mU · min/ml
Drop of plasma DP IV activity [1]: 5.3 mU/ml and 12.7 mU/ml
Plasma DP IV activity Minimum [1]: 25.0 mU/ml and 15.4 mU/ml and 10.1 mU/ml
Time of Minimum [1]: 5
area under the curve of DP IV activity (intravasal 100 mg/kg b.w., AUC 0-20 min (FIG. 2), p<0.05): −159±40 mU*min*ml^−1
Plasma DP IV activity (intravasal 100 mg/kg, 5 min, Mean): 5.1 mU/ml
Plasma DP IV activity (intravasal 100 mg/kg, 5 min, Standard. Mean): 11.1 mU/ml
Plasma DP IV activity (intravasal 100 mg/kg, 5 min, individual animals): 5.3 mU/ml and 4.8 mU/ml
Plasma DP IV activity (intravasal 100 mg/kg, 10 min, Mean): 7.2 mU/ml
Plasma DP IV activity (intravasal 100 mg/kg, 10 min, Standard. Mean): 13.2 mU/ml
Plasma DP IV activity (intravasal 100 mg/kg, 10 min, individual animals): 6.6 mU/ml and 8.8 mU/ml and 6.1 mU/ml
Plasma DP IV activity (intravasal 100 mg/kg, 20 min, Mean): 18.9 mU/ml
Plasma DP IV activity (intravasal 100 mg/kg, 20 min, Standard. Mean): 24.9 mU/ml
Plasma DP IV activity (intravasal 100 mg/kg, 20 min, individual animals): 19.7 mU/ml and 22.4 mU/ml and 14.5 mU/ml
Plasma DP IV activity (intravasal 100 mg/kg, 40 min, Mean): 19.4 mU/ml
Plasma DP IV activity (intravasal 100 mg/kg, 40 min, Standard. Mean): 25.4 mU/ml
Plasma DP IV activity (intravasal 100 mg/kg, 40 min, individual animals): 21.1 mU/ml and 22.8 mU/ml and 14.5 mU/ml
Plasma DP IV activity (intravasal 100 mg/kg, 60 min, Mean): 19.3 mU/ml
Plasma DP IV activity (intravasal 100 mg/kg, 60 min, Standard. Mean): 25.3 mU/ml
Plasma DP IV activity (intravasal 100 mg/kg, 60 min, individual animals): 19.7 mU/ml and 20.2 mU/ml and 18.0 mU/ml
Plasma DP IV activity (intravasal 100 mg/kg, 120 min, Mean): 19.2 mU/ml
Plasma DP IV activity (intravasal 100 mg/kg, 120 min, Standard. Mean): 25.2 mU/ml
Plasma DP IV activity (intravasal 100 mg/kg, 120 min, individual animals): 21.9 mU/ml and 20.0 mU/ml and 15.8 mU/ml
DP IV AUC 0-20 (intravasal 100 mg/kg, Mean): −159.0 mU · min/ml
DP IV AUC 0-120 (intravasal 100 mg/kg, Mean): −133.0 mU · min/ml
Drop of plasma DP IV activity (intravasal 100 mg/kg, Mean): 13.9 mU/ml
Plasma DP IV activity Minimum (intravasal 100 mg/kg, Mean): 5.1 mU/ml
Time of Minimum (intravasal 100 mg/kg, Mean): 5.0
Plasma DP IV activity Minimum (intravasal 100 mg/kg, Standard. Mean): 11.1 mU/ml
DP IV AUC 0-20 [2]: −194.1 mU · min/ml and −166.7 mU · min/ml and −116.2 mU · min/ml
DP IV AUC 0-120 [2]: −233.6 mU · min/ml and −185.1 mU · min/ml and 19.7 mU · min/ml
Drop of plasma DP IV activity [2]: 15.8 mU/ml and 16.2 mU/ml and 9.6 mU/ml
Plasma DP IV activity Minimum [2]: 5.3 mU/ml and 4.8 mU/ml
Time of Minimum [2]: 5
time after administration at which the initial level of DP IV activity was restored / inhibition stopped (intravasal administration): 20 min
inhibition at 100 mg/kg (rat, iv, read-out: DPIV inhibition at tmax, i.v.): 73%
